Data reported in US20200197439A1, “IMM[…] POLYOMAVIRUSES” (Atara Biotherapeutics, Inc., priority 2016, published 2020).

System: BKV specific T cells
Experiment: Expansion of BKV specific T cells in the presence of IL-2 or IL-2 and IL-21
Assay type: cell-based, human
Details: IL-2 alone compared to cells grown in presence of IL-2 and IL-21; FIG. 13
Experimental: BKV specific T cells were generated using the PBMCs from healthy donors. PBMCs were stimulated in vitro with respective BKV peptide pools at a concentration of 1 μg/ml and incubated at 37° C., 6.5% CO2 for an hour. The cells were then washed and split into two to be cultured in two conditions. A part of the cells was grown in the R10 medium (RPMI+10% FCS) containing 30 ng/ml of IL21 (Milteyni Biotech Ltd) in 24 well plates incubated at 37° C., 6.5% CO2. Another part of the cells was incubated with R10 medium without IL-21. The cultures grown in both conditions were supplemented with R10 medium containing recombinant interleukin-2 (Charles River Laboratory, NIH, USA) at 20 IU/ml on day 2 and then supplemented with media containing IL-2 every 3 days thereafter until day 20.
T cells in the cultures were counted and required amount of cells were used for an IFN-γ intracellular cytokine (ICS) assay while the remaining cells were cryopreserved in liquid nitrogen. Approximately 2×10^5 of CTLs were added to a 96 well V-bottom plate. Cells were stimulated with respective peptides at a concentration of 1 μg /ml in R10 medium containing Golgiplug Brefeldin A (BD Pharmingen, San Diego, Calif.) and incubated at 37° C., 6.5% CO2 for four hours. BKV specific T cells were recalled with both BKV peptide and its respective JCV variant and vice versa for JCV specific T cells. […]

## IL-2: recombinant interleukin-2 culture supplement, 20 IU/ml
  percentage of CD25+ cells in both CD8+ and CD4+ T cell populations: higher
